Test results as given in ChEMBL document CHEMBL3301361, “Experimental in vitro DMPK and physicochemical data on a set of publicly disclosed compounds”.

Test: in vitro
Conditions: human, plasma

Compound | fraction unbound at 5 h
COc1cc(O)c2c(c1)/C=C/C[C@H](O)[C@H](O)C(=O)/C=C\C[C@H](C)OC2=O | 0.0139
CC(=O)NC1CC2CCCC(C1)N2C(=O)Nc1ccc(Cl)c(C(F)(F)F)c1 (configuration not stated) | 0.0209
Cc1nc(-c2cccc(C(F)(F)F)c2)sc1C(=O)O | 0.003
CCc1c(C(=O)C(N)=O)c2c(OCC(N)=O)cccc2n1Cc1ccccc1 | 0.151
CC(O)c1ccc2c(c1)N(CCN1CCC(NCc3ccc4c(n3)NC(=O)CO4)CC1)C(=O)CO2 (configuration not stated) | 0.112
O=C1COc2ccc(CNC3CCN(CCN4C(=O)COc5ccc(O)cc54)CC3)nc2N1 | 0.134
CC(=O)c1ccc2c(c1)N(CCN1CCC(NCc3ccc4c(n3)NC(=O)CO4)CC1)C(=O)CO2 | 0.119
CCCN(c1cncnc1)P(=O)(c1ccccc1)c1ccccc1 | 0.119
CN1CCC[C@@H]1Cc1c[nH]c2ccc(Nc3ncccc3[N+](=O)[O-])cc12 | 0.137

Same assay, conditions: human, plasma, PPB

Compound | fraction unbound at 5 h
CCCCc1nc2c(N)nc3ccccc3c2n1Cc1ccccc1 | 0.0171
NC(=O)[C@@H](CCC(F)(F)F)N(Cc1ccc(-c2ncon2)cc1F)S(=O)(=O)c1ccc(Cl)cc1 | 0.0167
CC(C)(N)C(=O)N[C@H](COCc1ccc(F)cc1F)C(=O)N1CCC2=NN(CC(F)(F)F)C(=O)[C@]2(Cc2ccccn2)C1 | 0.253
COc1cccc2c1CCC21NCc2ccccc21 (configuration not stated) | 0.208
C[C@H]1CN=C(N)c2sccc2O1 | 0.489
COc1cccc2c(O)nc(-c3ccc(C(F)(F)F)cc3)nc12 | 0.0544
NC(=O)c1cnc(N[C@H]2CCCNC2)c2cc(-c3ccc(F)c(F)c3)sc12 | 0.0191
COc1ccc(-c2cc3c(N[C@H]4CCCNC4)ncc(C(N)=O)c3s2)cc1 | 0.0661
NC(=O)c1cnc(N[C@H]2CCCNC2)c2cc(-c3ccc(F)cc3F)sc12 | 0.0467
Cc1nc(C(=O)N2CCOC3(CCN(Cc4ccc(Cl)cc4)CC3)C2)cs1 | 0.431
O=C(CN1CCCCCC1)N1c2ccccc2Sc2ccccc21 | 0.0293
CCOc1ccccc1C(=O)NCc1ccco1 | 0.0418
COc1ccc(-c2nc(-c3ccccn3)no2)cc1 | 0.024
O=C(CCS(=O)(=O)c1ccc(Br)cc1)NCc1cccs1 | 0.0854
O=C(Nc1ccc(Cl)c(Cl)c1)Nc1ccccc1C(=O)O | 0.523
O=C(c1csc2c1CCCC2)N1CCCCC1 | 0.0928
O=C1NC(c2ccc(Br)cc2)Nc2ccccc21 (configuration not stated) | 0.051
CS(=O)(=O)c1ccc(-c2cc(C(F)(F)F)ccc2OCC(=O)O)cc1 | 0.0676
CCN(C(=O)NCc1ccc(S(C)(=O)=O)cc1)C1CCN(CCC(c2ccccc2)c2ccccc2)CC1 | 0.329
CC(=O)Nc1ccc(CNc2[nH]nc3ccnc(Oc4ccccc4)c23)cc1 | 0.101
CCC(CC)NC(=O)c1cnn(-c2ccccc2)c1NS(=O)(=O)c1ccc(C)cc1 | 0.0139

Compound | fraction unbound at 5 h
Cc1cc(F)ccc1-n1nc(C(F)(F)F)cc1-c1ccc2c(c1)NC(=O)CO2 | 0.262
C[C@H]1O[C@@H](n2cnc3c(N)nc(OC(C4CC4)C(F)(F)F)nc32)[C@H](O)[C@@H]1O (some centres not stated) | 0.349
Cc1ccc(S(=O)(=O)Nc2c(C(=O)N[C@@H](C)C(C)(C)C)c(C)nn2C2CCS(=O)(=O)CC2)cc1 | 0.208
O=C(c1ccc(-c2ccc(Cl)cc2)o1)N(Cc1ccccn1)c1ccc(N2CCNCC2)cc1 | 0.0268
Nc1nc(Nc2cccc(Br)c2)c2[nH]cnc2n1 | 0.355
COc1ccccc1CCNCc1cccc(CCNC[C@H](O)c2ccc(O)c3[nH]c(=O)sc23)c1 | 0.0594
CN[C@@H](C)C(=O)N[C@H](C(=O)N[C@H]1CCCN(CCCc2ccccc2)C1)C1CCCCC1 | 0.334
CN[C@@H](C)C(=O)N[C@H](C(=O)N[C@H]1CCCN(CC(c2ccccc2)c2ccccc2)C1)C1CCCCC1 | 0.0262
CN[C@@H](C)C(=O)N[C@H](C(=O)N[C@H]1CCCN(CCc2cccc(F)c2)C1)C1CCCCC1 | 0.28
COc1cc(OC)c(S(=O)(=O)NCc2ccccc2N2CCCCC2)cc1NC(=O)CCC(=O)O | 0.304
Cc1c(CC(=O)O)c2cc(F)ccc2n1S(=O)(=O)c1ccc(S(C)(=O)=O)cc1 | 0.0768
CN(C(=O)Cc1ccc(S(C)(=O)=O)cc1)C1CCN(Cc2ccc(C(F)(F)F)cc2)CC1 | 0.19
NC(=O)c1cnc2[nH]c(-c3ccc(OCCN4CCCCC4)cc3)nc2c1NCCCNC(=O)C1CCC1 | 0.216
N#Cc1ccc(C(=O)Nc2ccc(-n3ccnc3)nc2)cc1 | 0.289
CCOC(=O)/C=C/[C@H](C[C@@H]1CCNC1=O)NC(=O)[C@@H](CC(=O)[C@@H](NC(=O)c1cc(C)on1)C(C)C)Cc1ccc(F)cc1 | 0.17
Nc1cc(C(=O)Nc2cccc(-c3nnn[nH]3)c2)cc(C(F)(F)F)c1 | 0.0219
CC(C)(C)NS(=O)(=O)c1cncc(-c2ccc3nc(NC(=O)NCC(=O)N4CCOCC4)nn3c2)c1 | 0.46
Nc1scc2c(C(=O)NC3CC3)nn(-c3ccc(F)cc3)c(=O)c12 | 0.069
CCNC(=O)c1cc2c(-n3ccc(C(F)(F)F)n3)c(-c3cncc(C#N)c3)cnc2[nH]1 | 0.089
CNC(=O)Nc1nc2ccc(-c3cncc(S(=O)(=O)NC(C)(C)C)c3)cn2n1 | 0.355
N#Cc1cnn2c(N)cc(-c3cccs3)nc12 | 0.0488

Compound | fraction unbound at 5 h
CC(=O)Nc1cc2c(ccn2-c2cc(NC3CC3)n3ncc(C#N)c3n2)cc1C | 0.0209
COc1cc2nc(-c3ccc(N4CCN(C)CC4)cc3)nc(NCCN3CCOCC3)c2cc1OC | 0.448
Cc1cc(-n2cnc3ccc(N[C@@H](C)c4ncc(F)cn4)nc32)n[nH]1 | 0.387
CCC#Cc1cncc(-c2ccc3c(c2)C2(N=C(C)C(N)=N2)[C@]2(CC[C@H](OC)CC2)C3)c1 (some centres not stated) | 0.0383
N#Cc1ccccc1C[C@@H](C(=O)O)N1CCC(CN2CCC(Oc3ccc(Cl)c(Cl)c3)CC2)CC1 | 0.0909
Cc1c(OC2CCN(CC3CCN([C@@](C)(Cc4ccc(F)cc4)C(=O)O)CC3)CC2)ccc(Cl)c1Cl | 0.0321
O=C(NCc1ccc(OC(F)(F)F)cc1)C1c2ccccc2C(=O)N1CCc1ncccn1 (configuration not stated) | 0.0818
N#Cc1ccc2ccc(=O)n(CCN3CC[C@@H](NCc4cc5c(cn4)OCCO5)[C@@H](O)C3)c2c1 | 0.208
CN(C)CCN(Cc1cccc2ccccc12)c1cc(N2CCOCC2)nc(=O)[nH]1 | 0.339
CC(C)N(CCCNC(=O)OCc1ccccc1)C[C@H]1O[C@@H](n2cnc3c(N)ncnc32)[C@H](O)[C@@H]1O | 0.339
Nc1ncnc2c1ncn2[C@@H]1O[C@H](CSCCCNC(=O)Nc2ccccc2)[C@@H](O)[C@H]1O | 0.186
CCC(C)(C)C[C@H](c1ccc(C(=O)O)c(Oc2cccc(Cl)c2)c1)N1CCC[C@H](n2cc(C)c(=O)[nH]c2=O)C1 | 0.0163
COc1ccc(Oc2cccc(CN3CCCC(n4cc(C)c(=O)[nH]c4=O)C3)c2)cc1 (configuration not stated) | 0.0179
O=C(NCc1ccccc1)c1ccc2cccnc2c1O | 0.0307
Cc1cn([C@H]2CCCN(Cc3ccc(C(=O)O)c(Oc4cccc(F)c4)c3)C2)c(=O)[nH]c1=O | 0.0818
Cc1c(CC(=O)O)c2cc(F)ccc2n1Cc1nc2ccccc2s1 | 0.0167
COc1cc(O)c(S(=O)(=O)N2c3ccccc3CCC2C)cc1NC(=O)CCC(=O)O (configuration not stated) | 0.0437
COc1cc(OC)c(S(=O)(=O)N(c2ccc(C)cc2)c2ccc(C)cc2)cc1NC(=O)CCC(=O)O | 0.0488
CS(=O)(=O)c1ccccc1C(=O)NC[C@@H](O)CN1CCC(Oc2ccc(Cl)c(Cl)c2)CC1 | 0.0872
O=C(NC[C@@H](O)CN1CCC(Oc2ccc(Cl)c(Cl)c2)CC1)c1c[nH]c2ccccc12 | 0.0191
O=C(NC[C@@H](O)CN1CCC(Oc2ccc(Cl)c(Cl)c2)CC1)c1n[nH]c(=O)c2ccccc12 | 0.035

Compound | fraction unbound at 5 h
Cc1nocc1C(=O)Nc1ccc(-c2ccccc2OC(F)(F)F)c(N)n1 | 0.016
Cc1cn([C@H]2CCCN(S(=O)(=O)c3ccc(CO)c(Oc4cccc(Cl)c4)c3)C2)c(=O)[nH]c1=O | 0.0736
CC(=O)N(C)c1ccc(Nc2ncc3cc(-c4ccncc4)ccc3n2)cc1 | 0.0191
Cc1cc2cc(C)c3nnc(SCC(=O)N4CCN(C(=O)c5ccco5)CC4)n3c2cc1C | 0.0209
CN1CCN(CCOc2n[nH]c3ncnc(Nc4ccc(OCc5ccccn5)c(Cl)c4)c23)CC1 | 0.117
COc1ccc(Cc2c(N)n[nH]c2N)cc1 | 0.194
COc1cc(OC2CCN(C)CC2)c2c(Nc3cccc4c3OCO4)ncnc2c1 | 0.0209
C[C@H](Cc1cccc(CC(=O)NC23CC4CC(CC(C4)C2)C3)c1)NC[C@H](O)c1ccc(O)c(CO)c1 | 0.101
Cc1nc(-c2c(F)cc(Cl)cc2-c2cnc([C@@H](C)NC(=O)[C@@](C)(O)C(F)(F)F)c(F)c2)no1 | 0.02
C[C@H](CO)Nc1nc(SCc2cccc(F)c2F)nc2[nH]c(=O)c(C#N)cc12 | 0.0171
C1Cc2[nH]nc(-c3nnn[nH]3)c2C1 | 0.101
O=C(Nc1ccc(Cl)c(C(=O)Nc2cccnc2)c1)c1cccc(Cl)c1 | 0.0171
COc1cc2c(Nc3ccc(F)c(Cl)c3)c(C(N)=O)cnc2cc1OCCN(C)CCO | 0.329
Cc1ccc2c(OCCN3CCC(Cc4cccc(NS(C)(=O)=O)c4)CC3)cccc2n1 | 0.03
O=C(NC1CC1)c1cn(-c2cccc(C#Cc3cccnc3)c2)c2ncccc2c1=O | 0.0167
COc1cc(C(C)C)c(Oc2cnc(N)nc2N)cc1I | 0.0467
Cc1ccc(C(=O)N2CC3CNCC(C2)O3)cc1NC(=O)CC12CC3CC(CC(C3)C1)C2 | 0.28
O=C(NCC12CC3CC(CC(C3)C1)C2)c1cc(-n2ncc(=O)[nH]c2=O)ccc1Cl | 0.0187
O=C(CC1CCN(Cc2ccn(-c3ccc(C(F)(F)F)cc3)c2)CC1)NC(c1ccc(F)cc1)c1cccnc1 (configuration not stated) | 0.0313
C[C@@](O)(C(=O)Nc1ccc(S(C)(=O)=O)cc1Cl)C(F)(F)F | 0.392
